This passage reports Kd results from US20150368338A1 (Janssen / Centocor, published 2015).

What is called Kd is the equilibrium constant for the complex coming apart. Read a high Kd as lower affinity.

B1: IFWM3340 (antibody, V domains shown)
VH: EVQLVQSGAEVKKPGESLKISCKGSGYSFTSYWIGWVRQMPGKGLEWMGIIDPSDSDTAYSPSFQGQVTISADKSISTAYLQWSSLKASDTAMYYCARHPGLNWAPDFDYWGQGTLVTVSS
VL: DIQMTQSPSSLSASVGDRVTITCRASQSIDGSLNWYQQKPGKAPKLLIYFASSLQSGVPSRFSGSGSGTDFTLTISSLQPEDFATYYCQQSYDFPLTFGQGTKVEIK
notes: VH IFWH624, VL IFWL983; converted mAb; also called IFWB3075
B2: IFWM3347 (antibody, V domains shown)
VH: EVQLVQSGAEVKKPGESLKISCKGSGYSFTSYWIGWVRQMPGKGLEWMGIIDPSDSDTAYSPSFQGQVTISADKSISTAYLQWSSLKASDTAMYYCARHPGLNWAPDFDYWGQGTLVTVSS
VL: DIQMTQSPSSLSASVGDRVTITCRASQSIAEFLNWYQQKPGKAPKLLIYFASSLQSGVPSRFSGSGSGTDFTLTISSLQPEDFATYYCQQSIDFPLTFGQGTKVEIK
notes: VH IFWH624, VL IFWL1004; converted mAb; also called IFWB3082
B3: IFWM3344 (antibody, V domains shown)
VH: EVQLVQSGAEVKKPGESLKISCKGSGYSFTSYWIGWVRQMPGKGLEWMGIIDPSDSDTAYSPSFQGQVTISADKSISTAYLQWSSLKASDTAMYYCARHPGLNWAPDFDYWGQGTLVTVSS
VL: DIQMTQSPSSLSASVGDRVTITCRASQSISKFLNWYQQKPGKAPKLLIYFASSLQSGVPSRFSGSGSGTDFTLTISSLQPEDFATYYCQQSNTLPFTFGQGTKVEIK
notes: VH IFWH624, VL IFWL998; converted mAb; also called IFWB3079
B4: IFWM3345 (antibody, V domains shown)
VH: EVQLVQSGAEVKKPGESLKISCKGSGYSFTSYWIGWVRQMPGKGLEWMGIIDPSDSDTAYSPSFQGQVTISADKSISTAYLQWSSLKASDTAMYYCARHPGLNWAPDFDYWGQGTLVTVSS
VL: DIQMTQSPSSLSASVGDRVTITCRASQSITNFLNWYQQKPGKAPKLLIYFASSLQSGVPSRFSGSGSGTDFTLTISSLQPEDFATYYCQQSLDFPLTFGQGTKVEIK
notes: VH IFWH624, VL IFWL1000; converted mAb; also called IFWB3080
B5: IFWM3343 (antibody, V domains shown)
VH: EVQLVQSGAEVKKPGESLKISCKGSGYSFTSYWIGWVRQMPGKGLEWMGIIDPSDSDTAYSPSFQGQVTISADKSISTAYLQWSSLKASDTAMYYCARHPGLNWAPDFDYWGQGTLVTVSS
VL: DIQMTQSPSSLSASVGDRVTITCRASQSIGSALNWYQQKPGKAPKLLIYFASSLQSGVPSRFSGSGSGTDFTLTISSLQPEDFATYYCQQSYDFPLTFGQGTKVEIK
notes: VH IFWH624, VL IFWL997; converted mAb; also called IFWB3078
B6: IFWM3341 (antibody, V domains shown)
VH: EVQLVQSGAEVKKPGESLKISCKGSGYSFTSYWIGWVRQMPGKGLEWMGIIDPSDSDTAYSPSFQGQVTISADKSISTAYLQWSSLKASDTAMYYCARHPGLNWAPDFDYWGQGTLVTVSS
VL: DIQMTQSPSSLSASVGDRVTITCRASQSINRFLNWYQQKPGKAPKLLIYAASSLQSGVPSRFSGSGSGTDFTLTISSLQPEDFATYYCQQAIDLPFTFGQGTKVEIK
notes: VH IFWH624, VL IFWL991; converted mAb; also called IFWB3076
B7: IFWM3346 (antibody, V domains shown)
VH: EVQLVQSGAEVKKPGESLKISCKGSGYSFTSYWIGWVRQMPGKGLEWMGIIDPSDSDTAYSPSFQGQVTISADKSISTAYLQWSSLKASDTAMYYCARHPGLNWAPDFDYWGQGTLVTVSS
VL: DIQMTQSPSSLSASVGDRVTITCRASQSIGDFLNWYQQKPGKAPKLLIYFASSLQSGVPSRFSGSGSGTDFTLTISSLQPEDFATYYCQQALDFPLTFGQGTKVEIK
notes: VH IFWH624, VL IFWL1001; converted mAb; also called IFWB3081
B8: IFWM3342 (antibody, V domains shown)
VH: EVQLVQSGAEVKKPGESLKISCKGSGYSFTSYWIGWVRQMPGKGLEWMGIIDPSDSDTAYSPSFQGQVTISADKSISTAYLQWSSLKASDTAMYYCARHPGLNWAPDFDYWGQGTLVTVSS
VL: DIQMTQSPSSLSASVGDRVTITCRASQSIGSFLNWYQQKPGKAPKLLIYFASSLQSGVPSRFSGSGSGTDFTLTISSLQPEDFATYYCQQSYSIPITFGQGTKVEIK
notes: VH IFWH624, VL IFWL992; converted mAb; also called IFWB3077

The assay deals with T1, IFN-αB2 (human, UniProt P32881 24-189).
T1 construct: also called IFN-α8; IFN alpha B2
As to the kind of experiment: ProteOn, one antigen concentration.
In turn, B1 came in with a Kd of 0.008 nM.

In turn, B2 displayed a Kd of 0.041 nM.

As to B3, the Kd came out at 0.08 nM.

Turning to B4, the affinity, expressed as Kd, was 0.009 nM.

The molecule B5 showed a Kd of 0.06 nM.

On to B6, for which the Kd was found to be 0.007 nM.

Consider B7, for which binding was characterised by a dissociation constant (Kd) of 0.044 nM.

With B8, binding was put at a Kd of 0.043 nM.
